The results in this text go back to ChEMBL document CHEMBL1143747, “Synthesis and pharmacochemical evaluation of novel aryl-acetic acid inhibitors of lipoxygenase, antioxidants, and anti-inflammatory agents” (Bioorg Med Chem, 2007).

This test is described as follows: Reduction of DPPH radical activity at 0.1 mM after 20 mins. Also on record: scale not given: the % may be the effect or the level left. It counts as functional. For orientation: Loss of DPPH colour is used to gauge radical scavenging.

The compound `CC(Cc1ccc(O)c(O)c1)C(C)Cc1ccc(O)c(O)c1` (stereo unspecified) yielded an Activity of 81%.
